# AlphaSeq binding of Ab-14 light chain variants to a spike HR2 peptide

From the AlphaSeq antibody data of Li et al. 2023 (doi:10.1038/s41467-023-39022-2), copy in the FLAb collection.

The target is the same throughout: PDVDLGDISGINAS, from the HR2 region of SARS-CoV-2 spike.

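The parent was found by panning a naive human phage display library on the peptide. These sequences belong to a second round, designed from the earlier measurements on random variants of the parent. Their group label is 14L_GP_HC (GP: Gaussian process model; HC: hill climbing; a sequence that several methods proposed may carry one label only). In AlphaSeq, yeast of one mating type display the scFv and yeast of the other type display the target. After mating in shaken culture at 30 °C for 16 h, diploids were selected and their barcode pairs sequenced. Scores were corrected for input abundance and mapped to Kd with protein pairs of known affinity run in the same pool. The assay was run in six technical replicates.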

The variants keep the heavy chain, the linker and the frameworks of Ab-14 (scFv order VH, three GGGGS repeats, VL).
VH: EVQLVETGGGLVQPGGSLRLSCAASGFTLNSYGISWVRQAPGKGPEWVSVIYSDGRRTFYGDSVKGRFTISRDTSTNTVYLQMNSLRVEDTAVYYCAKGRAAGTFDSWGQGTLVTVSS
VL: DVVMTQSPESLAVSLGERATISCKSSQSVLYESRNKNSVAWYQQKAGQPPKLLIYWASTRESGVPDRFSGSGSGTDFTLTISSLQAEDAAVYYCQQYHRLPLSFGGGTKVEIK

Substitutions are numbered in sequence along the VL above, starting at 1 (not Kabat). The read-out is the apparent dissociation constant on a log10 scale (nM): the lower, the stronger. Replicates are averaged; those with no signal do not enter the mean. "nd" means that the variant was in the library but no mating with the target was seen in that replicate; the authors take this as a sign of poor binding, and no number exists.

| changes | log10 Kd, replicates | log10 Kd (nM), mean | control signals |
|---|---|---|---|
| K24H/S25Q/Q27P/W56N/A57G/S62E | 0.21 -0.11 -0.06 -0.29 -0.20 0.04 | -0.07 | 2 of 18 (2.94) |
| S26L/Q27W/R34N/W56H/T59Q/S62D | 0.33 0.38 0.43 0.54 0.45 0.50 | 0.44 | 0 of 18 |
| S26L/L30P/W56H/S62D/R99Q | 0.08 -0.06 -0.01 -0.04 -0.33 -0.17 | -0.09 | 0 of 18 |
| S25T/S26G/S28G/W56G/T59Q | 0.16 -0.11 -0.11 -0.24 -0.15 0.15 | -0.05 | 1 of 18 (2.51) |
| S25L/S26V/Q27N/V29T/N35Q/W56A | 0.82 0.98 0.88 0.48 1.32 0.97 | 0.91 | 1 of 18 (3.92) |
| S25L/S26M/W56H/S62D/Q95K | nd 2.44 nd nd nd nd | 2.44 | 0 of 18 |
| S25V/V29F/S38A/W56G/P101K | nd nd nd nd nd nd | nd | 0 of 18 |
| S25L/S26P/W56H/S62D/R99Q | -0.05 -0.08 -0.16 -0.28 -0.03 -0.21 | -0.14 | 2 of 18 (3.00) |
| K24H/S25L/Q27W/S38N/W56N | -0.16 -0.40 -0.24 -0.32 -0.50 -0.23 | -0.31 | 0 of 18 |
| S25Y/S26Y/Q27P/V29Y/S38A/W56Q/R99L | 0.40 0.16 0.05 0.19 0.07 0.56 | 0.24 | 0 of 18 |
| S25V/S26R/V29T/W56M | 0.77 0.56 0.54 0.32 0.36 0.49 | 0.51 | 0 of 18 |
| S25H/V29F/N35W/W56G/T59Q | 0.58 0.96 0.76 0.39 0.95 1.23 | 0.81 | 1 of 18 (1.40) |
| S25V/S28G/W56G | nd nd nd nd nd nd | nd | 1 of 18 (2.38) |
| L30D/Y31Q/W56D | -0.03 -0.21 -0.08 -0.28 -0.20 -0.01 | -0.13 | 2 of 18 (2.91) |
| S25F/L30W/N35T/W56N | 0.06 -0.04 -0.24 -0.06 0.02 0.06 | -0.03 | 2 of 18 (2.53) |
| Q27G/V29F/W56E | 0.02 0.10 -0.21 -0.15 -0.04 0.10 | -0.03 | 2 of 18 (3.52) |
| R34H/W56N/T59Q/E61M | 1.08 0.88 1.54 1.07 1.60 1.28 | 1.24 | 1 of 18 (4.39) |
| Q27P/L30Y/R34H/W56N/E61M | 0.40 0.64 0.82 0.67 0.86 0.80 | 0.70 | 0 of 18 |
| Q27I/V29D/Y31E/W56E | nd nd nd nd nd nd | nd | 0 of 18 |
| Q27I/V29Y/R34M/W56Y/A57G | 1.16 0.74 0.82 0.89 0.74 0.84 | 0.87 | 1 of 18 (2.60) |
| S25W/W56D/E61S | -0.06 -0.23 -0.38 -0.36 -0.27 -0.02 | -0.22 | 3 of 18 (2.46) |
| Q27I/V29K/W56E | 0.29 0.30 0.19 0.04 0.01 0.25 | 0.18 | 0 of 18 |
| S25M/S26P/W56H/S62D/Q96S | 1.14 0.67 0.15 0.21 0.16 0.73 | 0.51 | 1 of 18 (2.61) |
| Q27I/V29Y/Y31P/K36E/W56E/S62Q | 0.49 0.70 0.70 0.65 0.77 0.66 | 0.66 | 2 of 18 (2.63) |
| S25L/S26R/Q27M/V29T/W56T | 0.26 0.23 0.32 0.08 0.05 0.32 | 0.21 | 0 of 18 |
| S25V/S26R/V29T/W56N | 0.48 0.29 0.30 0.08 0.33 0.37 | 0.31 | 0 of 18 |
| S26Q/V29W/K36F/W56H/S62D | 0.18 0.12 0.27 0.22 0.15 0.36 | 0.22 | 1 of 18 (3.86) |
| V29W/W56D/S62Q | -0.44 -0.64 -0.65 -0.89 -0.63 -0.61 | -0.64 | 0 of 18 |
| S28G/V29W/W56G/T59F | 0.06 -0.06 0.01 -0.20 0.01 0.17 | 0.00 | 1 of 18 (3.21) |
| S25Q/W56M/H98N | -0.03 0.20 -0.17 0.33 0.37 0.17 | 0.14 | 0 of 18 |
| S25F/R34T/N35T/K36L/W56N | 0.27 0.19 0.23 0.03 0.22 0.29 | 0.21 | 1 of 18 (3.36) |
| Q27I/R34M/W56E | 0.51 0.47 0.53 0.39 0.45 0.69 | 0.51 | 2 of 18 (2.55) |
| S25V/S26L/S33Q/W56H/S62D | -0.06 -0.13 -0.16 -0.14 -0.33 -0.01 | -0.14 | 0 of 18 |
| S25Q/W56D/S103A | 0.19 0.17 0.15 0.15 0.07 0.15 | 0.15 | 1 of 18 (1.78) |
| S26M/S28G/W56G/T59L | 0.39 0.32 0.13 0.13 0.56 0.58 | 0.35 | 1 of 18 (2.29) |
| L30K/Y31T/W56D | 0.39 0.33 0.29 0.32 0.25 0.65 | 0.37 | 3 of 18 (3.05) |
| S25V/S26Q/S33G/W56H/S62D | 0.18 -0.12 -0.03 -0.27 0.29 0.16 | 0.04 | 1 of 18 (2.05) |
| S25L/S26N/V29T/K36Q | 0.79 0.34 0.52 0.32 0.73 0.60 | 0.55 | 0 of 18 |
| S25C/S28E/V29K/W56D | 0.17 -0.08 0.03 -0.05 -0.08 0.15 | 0.02 | 0 of 18 |
| V29F/K36F/W56G | 0.00 0.21 0.11 -0.09 0.05 0.21 | 0.08 | 1 of 18 (1.77) |
| S25Q/V29F/K36V/W56G | 0.78 0.99 1.23 0.86 0.84 1.09 | 0.96 | 1 of 18 (2.72) |
| K24T/S25F/V29W/W56G | -0.24 -0.18 -0.41 -0.45 -0.46 -0.38 | -0.35 | 1 of 18 (2.06) |
| S25F/S26D/S28G/V29A/W56G | -0.14 -0.28 -0.40 -0.68 -0.62 -0.43 | -0.43 | 0 of 18 |
| S25L/S26Q/S28Q/V29W/W56N/S62E | -0.07 -0.19 -0.19 -0.40 -0.25 -0.13 | -0.21 | 2 of 18 (2.59) |
| S25L/V29T/E32D/R34I/W56S/H98K | 0.09 0.63 0.18 -0.08 0.48 0.80 | 0.35 | 0 of 18 |
| S25I/S26L/N35D/W56H/S62D | 0.18 -0.05 -0.11 -0.19 0.01 -0.02 | -0.03 | 2 of 18 (2.66) |
| S26G/Q27T/S28G/W56G | 0.19 -0.08 -0.21 -0.18 -0.07 -0.30 | -0.11 | 1 of 18 (2.43) |
| Q27G/V29W/W56G/T59S | 0.06 -0.21 0.14 -0.18 -0.28 -0.07 | -0.09 | 2 of 18 (2.96) |
| S26E/V29W/W56H/S62Q | 0.17 0.01 -0.13 -0.18 -0.13 -0.08 | -0.06 | 2 of 18 (3.27) |
| S25F/L30N/N35T/W56N | 0.20 0.09 0.31 0.11 0.21 0.30 | 0.20 | 1 of 18 (1.87) |
| Q27S/V29Y/R34M/W56N/T59Q | 0.92 0.60 0.68 0.42 0.25 0.70 | 0.60 | 0 of 18 |

Excerpt, the final 8 entries:

| changes | log10 Kd, replicates | log10 Kd (nM), mean | control signals |
|---|---|---|---|
| S25L/S26Q/S28Q/V29W/W56N/S62E | -0.07 -0.19 -0.19 -0.40 -0.25 -0.13 | -0.21 | 2 of 18 (2.59) |
| S25L/V29T/E32D/R34I/W56S/H98K | 0.09 0.63 0.18 -0.08 0.48 0.80 | 0.35 | 0 of 18 |
| S25I/S26L/N35D/W56H/S62D | 0.18 -0.05 -0.11 -0.19 0.01 -0.02 | -0.03 | 2 of 18 (2.66) |
| S26G/Q27T/S28G/W56G | 0.19 -0.08 -0.21 -0.18 -0.07 -0.30 | -0.11 | 1 of 18 (2.43) |
| Q27G/V29W/W56G/T59S | 0.06 -0.21 0.14 -0.18 -0.28 -0.07 | -0.09 | 2 of 18 (2.96) |
| S26E/V29W/W56H/S62Q | 0.17 0.01 -0.13 -0.18 -0.13 -0.08 | -0.06 | 2 of 18 (3.27) |
| S25F/L30N/N35T/W56N | 0.20 0.09 0.31 0.11 0.21 0.30 | 0.20 | 1 of 18 (1.87) |
| Q27S/V29Y/R34M/W56N/T59Q | 0.92 0.60 0.68 0.42 0.25 0.70 | 0.60 | 0 of 18 |

The range of this assay differs from that of the first round, and the authors advise against merging the two. The authors' rule: three or more of the six replicates give a measured affinity, fewer mean a poor binder. The parent sequence was in this pool as ten entries: three were never detected, three once, and four in most replicates, with averages from 0.34 to 2.37. Background: pairings of all light chain designs with three empty control strains gave a value in 4% of cases (median 2.64, 5th percentile 1.59). Values in that range, when seen in few replicates, are hard to tell from nonspecific mating. Also given: how often the same scFv was detected with the empty control strains, with their mean in brackets.